By UniProt entry, the sequences of proteins in these tests, tags left out. Where a name states a change or a piece, a line headed by the entry shows the natural chain unless it says otherwise.
UniProt Q01650: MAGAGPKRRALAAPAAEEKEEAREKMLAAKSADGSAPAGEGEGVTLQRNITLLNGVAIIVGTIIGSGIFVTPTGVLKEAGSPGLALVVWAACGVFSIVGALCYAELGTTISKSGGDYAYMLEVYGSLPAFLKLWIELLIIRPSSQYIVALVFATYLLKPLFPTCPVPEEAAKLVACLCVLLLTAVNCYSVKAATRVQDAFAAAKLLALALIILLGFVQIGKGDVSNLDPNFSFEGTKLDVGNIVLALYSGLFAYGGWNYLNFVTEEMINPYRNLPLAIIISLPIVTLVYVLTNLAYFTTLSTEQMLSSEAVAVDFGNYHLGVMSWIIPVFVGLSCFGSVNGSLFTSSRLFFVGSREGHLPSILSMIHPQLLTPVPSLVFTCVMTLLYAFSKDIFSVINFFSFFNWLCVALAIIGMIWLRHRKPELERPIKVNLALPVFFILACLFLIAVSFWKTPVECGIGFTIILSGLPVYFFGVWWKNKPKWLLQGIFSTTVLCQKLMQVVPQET

According to article PMC6865181, “Role of L-Type Amino Acid Transporter 1 (LAT1) for the Selective Cytotoxicity of Sesamol in Human Melanoma Cells” (Molecules, 2019):

Tests used:
LAT1 [1] = target: LAT1 (Homo sapiens, UniProt Q01650); assay: LAT1 function: competitive uptake of L-dopa in SK-MEL-2 cells; assay type: cell-based; details: L-dopa 0.1 mM, 10 min, competitor at the concentration printed in the row
Method: (§1) SK-MEL-2 and Vero cells were seeded separately into 24-well plates at 2 × 10^5 cells/well for 24 h. The media was removed, and the cells pre-incubated with HBSS pH 7.4 for 10 min. The cells were used for the following experiments.
Sesamol was also investigated for its affinity to LAT1. […] Competitive uptake was performed for 10 min then the cells were washed twice with ice-cold PBS. The L-dopa was solubilized by 0.1 M HCl and the cell lysate (25 µL) was pipetted for protein determination. […] Intracellular and extracellular L-dopa was quantified by the HPLC assay. The L-dopa uptake was represented as the distribution volume of L-dopa in a cell to media ratio (C/M ratio) as calculated in Section 4.3.1.
(§2) The analysis was based on a BDS Hypersil C-18 column, (4.6 × 250 mm, 5 µm packing, Thermo Fisher Scientific, Waltham, MA, USA). The column temperature was set at 30 °C with a flow rate of 0.8 mL/min. The mobile phase for sesamol quantification was 70% methanol in water, vs. 20% methanol in water for L-dopa. […] The validated sesamol quantification conducted using sesamol spiked cell lysate with high selectivity and clear separation from the endogenous cell lysate as previously reported. The % bias and % precision was determined within and between days, each was maintained below 6%.

LAT1 [2] = details: Vero cells; sesamol 0.1 mM, 10 min; competitor at the concentration printed in the row
Method: as §1
Competitive inhibition of uptake of sesamol was done in both SK-MEL-2 and the Vero cells. […] The cells were washed twice with ice-cold PBS, solubilized in methanol, and centrifuged at 2400× g, at 4 °C for 20 min. The precipitated protein was re-solubilized by 0.1 M NaOH prior to protein determination. The sesamol content was quantified using HPLC assay. The cellular uptake of sesamol was calculated as per the C/M ratio.
as §2, with “Quantitative analysis of sesamol and L-dopa were performed using a Shimadzu HPLC (LC-2030C-3D) with a UV photodiode array detector (DAD) (Kyoto, Japan). The analysis” for “The analysis”

L-Dopa Distribution Volume in presence of the compound (LAT1 [1]): 105.0 ± 5.2 µL/mg Protein
SMILES: N[C@@H](Cc1ccc(O)cc1)C(=O)O [L-tyrosine]
Sesamol Distribution Volume in presence of the compound (LAT1 [2]): 10.5 ± 0.7 µL/mg Protein
